Experimental data taken from PubChem BioAssay AID587 (National Center for Advancing Translational Sciences (NCATS), 2007).
The entries are a selection whose mix differs from that of the whole data set. Some tests of the compounds listed are not included; inactive here does not mean inactive elsewhere. Results filed as inconclusive are left out. Active and inactive are the calls of the source. Rule as the data show it: active = max dye-equivalent concentration above about 10 nM; inconclusive = between about 1.1 nM and that limit; inactive = weaker than that.

experiment: qHTS Assay for Spectroscopic Profiling in Texas Red Spectral Region; conditions: Compound fluorescence, Texas Red channel, 547/618 nm
Text: NIH Molecular Libraries Screening Centers Network [MLSCN] NIH Chemical Genomics Center [NCGC] […] Occasionally, the artifactual effect may originate from the compound#s own spectral or other biophysical properties which generally tend to track its assay concentration. Pre-screening/profiling the library with respect to the compounds# spectral properties should help one exclude false positives early on. While the most informative fluorescent profiling data set is obtained by performing a full excitation and emission scan of each well by using a monochromator-based plate reader, such an approach is practical only on a very limited scale as scanning each well requires long time. An alternative approach, applied here, is to perform plate reader scans using selected excitation and emission wavelength pairs to generate a multidimensional relational database that correlates compound concentration and the respective relative fluorescence intensity at a given wavelength set. A standard curve of Texas Red (TR) present on each plate as six-point concentration series, was used to compute a normalized fluorescence response, termed dye-equivalent concentration, for each compound at each concentration.
NCGC Assay Protocol Summary: Buffer: 100 mM Tris buffer, pH 8.0 Dye standard plate: The wells in columns 1 through 4 of a Kalypsys polypropylene 1536-well compound plate were filled with standard solutions of fluorophore corresponding to the spectral region of interest. Solutions of TR were placed in the following wells: U1, V1: 3 mM, U2, V2: 300 uM, U3, V3: 30 uM, U4, V4: zero (DMSO), W1, X1: 3 uM, W2, X2: 900 nM, W3, X3: 300 nM, W4, X4: zero (DMSO). Assay Steps: Six uL of buffer were dispensed to 1536-well Greiner black plates. Compounds and dye standards (23 nL) were transferred via Kalypsys PinTool. The plates were incubated for 15 min at room temperature, and then read on ViewLux (Perkin-Elmer) High-throughput CCD imager using 547 nm and 618 nm excitation and emission filter set. Keywords: NIH Roadmap, MLSCN, MLI, MLSMR, qHTS, NCGC, Texas Red, Fluorescent Profiling.

SMILES	outcome
CN(C)c1cccc(C(=O)NCC2(N(C)C)CCCCC2)c1	inactive
C=C(C)C#C[C@@](O)(C(=O)OC1CCN(C)CC1)c1ccccc1	inactive
CN1CC[C@H](OC(=O)[C@](O)(c2ccccc2)C2CCCC2)C1	inactive
O=C(OC1CN2CCC1CC2)C(CO)(c1ccccc1)c1ccccc1 (stereo not given)	inactive
CN1CCC[C@H](OC(=O)[C@](O)(c2ccccc2)C2CCCC2)C1	inactive
